Assay [1] concerns the target CDK2/CycE (Homo sapiens, UniProt P24941). As to the kind of experiment: CDK2/CycE kinase assay. In kind it is biochemical. The following applies: read-out: Inhibition IC50 CDK2/CycE; Table II.
Assay [2] concerns MCF7. As to the kind of experiment: Proliferation assay MCF7. The following applies: read-out: Proliferation IC50 MCF7; Table II; 4 days incubation, crystal violet.

For the compound `O=C1NCCCCCNc2ccnc(n2)Nc2cccc1c2`, the IC50 in assay [1] was > 10 µM.
As to `O=C1NCCCCCNc2nc(ncc2Br)Nc2cccc1c2`, the IC50 in assay [2] is 30 µM; in assay [1], 7 µM.

The record behind these values is US7312225B2, “Macrocyclic pyrimidines, their production and use as pharmaceutical agents” (Bayer Schering Pharma AG, priority 2002, dated 2007).
